From patent US20110237455A1, “ARRAY ANALYSIS FOR ONLINE DETECTION” (EPPENDORF AG, priority 2010, published 2011)

Test: Absorbance spectrum of light absorbing agents
Type: physicochemical
Details: light absorbing agent at 1%
Text: Table 1 summarizes the properties of different light absorbing agents tested according to the invention. The Table presents the absorbance peak and the estimated width of the absorbance band, based on the experimental spectra covering around 90% of the dye absorbance. The intrinsic fluorescence of the agents at the emission wavelength of 570 nm (green channel) or at the emission of 666 nm (red channel) is indicated. Intrinsic fluorescence is expressed as the percentage of the fluorescence compared to cy3 fluorescence if present at 1 μM for green channel (=100%) or Oyster645 fluorescence if present at 1 μM for red channel (=100%). Experimental details are given in example 4.

Substance: Blue Dextran [(B) Blue Dextran]
- Absorbance spectrum peak: 619 nm
- Absorbance spectrum (estimated min-max) (estimated width of band covering around 90% of the dye absorbance): 475-750
